These results are taken from article PMC4161151 (Journal of Medicinal Chemistry, 2014).

Protein sequences, listed by entry. Tags and fused reporters are not part of them. Lines headed by an entry give the natural chain unless they say otherwise; changes in a name come on top.
UniProt P41145: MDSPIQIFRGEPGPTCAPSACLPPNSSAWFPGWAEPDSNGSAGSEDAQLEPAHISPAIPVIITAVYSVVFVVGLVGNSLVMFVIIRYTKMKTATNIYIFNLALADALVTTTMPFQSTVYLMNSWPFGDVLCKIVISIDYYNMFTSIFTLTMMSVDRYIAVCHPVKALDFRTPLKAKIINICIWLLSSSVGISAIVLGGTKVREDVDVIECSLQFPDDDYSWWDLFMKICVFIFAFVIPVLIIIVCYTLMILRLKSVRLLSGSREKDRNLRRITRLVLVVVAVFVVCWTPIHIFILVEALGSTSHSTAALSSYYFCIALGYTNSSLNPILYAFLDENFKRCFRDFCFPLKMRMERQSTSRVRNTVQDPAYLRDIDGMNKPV
UniProt P35372, whole entry: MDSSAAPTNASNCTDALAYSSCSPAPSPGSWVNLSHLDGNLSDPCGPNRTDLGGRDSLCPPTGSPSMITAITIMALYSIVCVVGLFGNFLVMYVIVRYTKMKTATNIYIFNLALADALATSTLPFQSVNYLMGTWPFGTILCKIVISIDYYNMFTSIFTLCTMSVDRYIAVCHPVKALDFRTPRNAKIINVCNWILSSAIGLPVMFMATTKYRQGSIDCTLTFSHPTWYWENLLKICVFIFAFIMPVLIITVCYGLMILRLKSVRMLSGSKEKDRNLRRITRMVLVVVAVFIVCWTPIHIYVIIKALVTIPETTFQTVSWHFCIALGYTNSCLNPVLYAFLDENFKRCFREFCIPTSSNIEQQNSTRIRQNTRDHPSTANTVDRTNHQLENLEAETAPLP

Experiment [1] addresses δ opioid receptor (Homo sapiens, UniProt P41143). The experiment can be described thus: biochemical.
Experiment [2] has as its target T1, κ opioid receptor (Homo sapiens, UniProt P41145). The experiment can be described thus: biochemical.
The target in experiment [3] is T1, κ opioid receptor. The note with it: ratio of Ke values; for δ/κ: selectivity for κ relative to δ; for μ/κ: selectivity for κ relative to μ.
Experiment [4] concerns the target T2, μ opioid receptor (Homo sapiens, UniProt P35372). The experiment can be described thus: biochemical.
Experiment [5] addresses T2, μ opioid receptor. The note with it: cloned human μ receptor; mean (SE), at least three independent experiments.

Regarding `CC(C)[C@@H](CN1CC[C@@](C)(c2cccc(F)c2)[C@@H](C)C1)NC(=O)[C@H]1Cc2ccc(O)cc2CN1` [Compound 5, (3R)-N-[(1S)-1-{[(3R,4R)-4-(3-Fluorophenyl)-3,4-dimethylpiperidin-1-yl]methyl}-2-methylpropyl]-7-hydroxy-1,2,3,4-tetrahydroisoquinoline-3-carboxamide], the Kb in experiment [1] came to 249 ± 44 nM; in experiment [2], 0.01 ± 0.004 nM; in experiment [4], 14.8 ± 5 nM. Also, the δ/κ in experiment [3] turned out to be 24900. For the same compound, the μ/κ in experiment [3] is on record as 1480.

On to `CC(C)[C@@H](CN1CC[C@@](C)(c2cccc(O)c2)[C@@H](C)C1)NC(=O)[C@H]1Cc2ccc(O)cc2CN1` [JDTic, (3R)-1,2,3,4-tetrahydro-7-hydroxy-N-[(1S)-1-[[(3R,4R)-4-(3-hydroxyphenyl)-3,4-dimethyl-1-piperidinyl]methyl]-2-methylpropyl]-3-isoquinolinecarboxamide, reference compound], for which the “Ke μ, DAMGO” value in experiment [5] is given as 25 nM.

Consider `CC(C)[C@@H](CN1CC[C@@](C)(c2ccccc2)[C@@H](C)C1)NC(=O)[C@H]1Cc2ccc(O)cc2CN1` [Compound 4, (3R)-N-[(1S)-1-{[(3R,4R)-3,4-Dimethyl-4-phenylpiperidin-1-yl]methyl}-2-methylpropyl]-7-hydroxy-1,2,3,4-tetrahydroisoquinoline-3-carboxamide], for which the results for the Kb in experiment [1], in experiment [2] and in experiment [4] were 442 ± 130 nM, 0.024 ± 0.01 nM and 8.9 ± 3 nM, respectively. The δ/κ in experiment [3] is reported as 18400. Moreover, in experiment [3], the μ/κ was 370.
